# Measured water solubility values of organic chemicals

Values as listed in the OPERA 2.9 repository of K. Mansouri.

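These are experimental values that the OPERA curators gathered from public databases to train and test their QSAR models. A listed value is a point estimate from one report or more. How each value was measured is not recorded, so precision varies. The measured form (salt, isomer or mixture) is not always the one drawn. Unmarked limits or estimates from the upstream databases cannot be ruled out.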

Solubility in water is on a log10 molar scale (set defined at 25 °C).

* CNc1ncnc2[nH]cnc12 [N-Methyl-9H-purin-6-amine]: log S -2.102 (log10 mol/L)
* CCN(CC)C(=O)C(C)OC(=O)c1ccccc1 (stereo unspecified) [1-(Diethylamino)-1-oxopropan-2-yl benzoate]: log S -2.281 (log10 mol/L)
* COC(=O)Nc1nc2cc(Sc3ccccc3)ccc2[nH]1 [Fenbendazole]: log S -7.48 (log10 mol/L)
* NC(=O)Nc1ccccc1Cl [(2-Chlorophenyl)urea]: log S -1.53 (log10 mol/L)
* O=S(=O)([O-])c1c(/N=N/c2c(O)ccc3ccccc23)ccc2ccccc12.O=S(=O)([O-])c1c(/N=N/c2c(O)ccc3ccccc23)ccc2ccccc12.[Ba+2]: log S -5.839 (log10 mol/L)
* CCSC(=S)OC(C)C(=O)O (stereo unspecified) [2-{[(Ethylsulfanyl)carbonothioyl]oxy}propanoic acid]: log S -1.429 (log10 mol/L)
* CCN(CCCc1ccccc1)CCCc1ccccc1 [Alverine]: log S -5.467 (log10 mol/L)
* CC(C)(C)c1cc(CCC(=O)OCCCCCCOC(=O)CCc2cc(C(C)(C)C)c(O)c(C(C)(C)C)c2)cc(C(C)(C)C)c1O: log S -8.106 (log10 mol/L)
* NC(=O)CC(O)C(=O)O (stereo unspecified) [4-Amino-2-hydroxy-4-oxobutanoic acid]: log S -0.249 (log10 mol/L)
* CCCCCCCCCCOc1ccc(C(c2ccccc2)(c2ccccc2)c2ccccc2)cc1C(C)CC (stereo unspecified): log S -7.787 (log10 mol/L)
* CCCCNC(=O)NS(=O)(=O)c1ccccc1 [Phenbutamide]: log S -3.05 (log10 mol/L)
* Nc1nc2c(ncn2[C@H]2C[C@H](O)[C@@H](COP(=O)(O)OP(=O)(O)O)O2)c(=O)[nH]1: log S -1.89 (log10 mol/L)
* CN(O)/N=N/c1ccccc1 [3-Hydroxy-3-methyl-1-phenyltriazene]: log S -1.526 (log10 mol/L)
* C[C@H](CC(N)=O)C(N)=O [(2R)-2-Methylsuccinamide]: log S -0.813 (log10 mol/L)
* O=C([O-])C(=O)CS.[Na+] [Sodium 3-mercaptopyruvate]: log S 0.148 (log10 mol/L)
* Fc1cccc(F)c1-c1nnc(-c2ccccc2Cl)nn1 [Diflovidazin]: log S -6.12 (log10 mol/L)
* Cc1cn([C@H]2C[C@H](O)[C@@H](CO)O2)c(=O)[nH]c1=O [Thymidine]: log S -0.711 (log10 mol/L)
* O[C@]1(c2ccc(Cl)cc2)CCCCC[C@@H]1n1cncn1 [Huanjunzuo]: log S -3.368 (log10 mol/L)
* CCn1c2ccccc2c2c3c(ccc21)N=c1c(Cl)c2c(c(Cl)c1O3)=Nc1ccc3c(c1O2)c1ccccc1n3CC [C.I. Pigment Violet 23]: log S -7.373 (log10 mol/L)
* COc1ccccc1OCC(O)COC(N)=O (stereo unspecified) [Methocarbamol]: log S -1.251 (log10 mol/L)
* O=C(Oc1ccccc1)c1ccccc1 [Phenyl benzoate]: log S -3.719 (log10 mol/L)
* CCC(C(=O)O)C(O)c1ccccc1 (stereo unspecified) [2-[Hydroxy(phenyl)methyl]butanoic acid]: log S -1.019 (log10 mol/L)
* CCOC(=O)c1ccc(/N=N/c2ccc(N)cc2N)cc1 [Ethyl 4-[(E)-(2,4-diaminophenyl)diazenyl]benzoate]: log S -3.375 (log10 mol/L)
* O=C(Nc1ccccc1)c1cc2ccccc2c(N=Nc2cc(Cl)ccc2Cl)c1O [Pigment Red 2]: log S -7.907 (log10 mol/L)
* O=C(O)C(O)Cc1ccc(O)cc1 (stereo unspecified) [2-Hydroxy-3-(4-hydroxyphenyl)propanoic acid]: log S -1.15 (log10 mol/L)
* COC(=O)c1ccc(N(C)C)cc1 [Methyl 4-dimethylaminobenzoate]: log S -3.3 (log10 mol/L)
* CCCCCCCCCCCCOC(=O)C1=C(C)NC(C)=C(C(=O)OCCCCCCCCCCCC)C1 [Didodecyl 1,4-dihydro-2,6-dimethylpyridine-3,5-dicarboxylate]: log S -12.35 (log10 mol/L)
* NS(=O)(=O)c1cc2c(s1)S(=O)(=O)CCC2=O: log S -3.02 (log10 mol/L)
* NC(=O)C(=O)N(CCO)N=Cc1ccc([N+](=O)[O-])o1: log S -3.055 (log10 mol/L)
* C[C@](N)(Cc1ccc(O)cc1)C(=O)O [Metyrosine]: log S -1.896 (log10 mol/L)
* COC(=O)c1cc(S(N)(=O)=O)ccc1SCCCO [Methyl 2-[(3-hydroxypropyl)sulfonyl]-5-sulfamoylbenzoate]: log S -2.371 (log10 mol/L)
* N#Cc1ccccc1S(=O)(=O)Nc1ccccc1 [2-cyano-N-phenylbenzene-1-sulfonamide]: log S -2.935 (log10 mol/L)
* Nc1cnc2c(N)ncnc2n1 [4,7-Pteridinediamine]: log S -2.909 (log10 mol/L)
* NC(=O)N(CCO)/N=C/C=C/c1ccc([N+](=O)[O-])o1: log S -3.11 (log10 mol/L)
* Cn1c(=O)c2c(c(=O)n(C)c(=O)n2C)n(C)c1=O: log S -2.939 (log10 mol/L)
* O=NN(CCCl)C(=O)NCCC(SCC(=O)O)n1cc(F)c(=O)[nH]c1=O (stereo unspecified): log S -1.518 (log10 mol/L)
* COc1ccc(C(c2ccc(OC)cc2)C(C)[N+](=O)[O-])cc1 (stereo unspecified) [1,1-BIS(P-MEO-PH)-2-NITROPROPANE]: log S -4.541 (log10 mol/L)
* C/C=C(/Cl)C(=O)O [(E)-2-Chloro-2-butenoic acid]: log S -0.757 (log10 mol/L)
* CC(SC(C)C(N)=O)C(N)=O (stereo unspecified) [2,2'-sulfanediyldipropanamide]: log S -0.924 (log10 mol/L)
* O[C@@H]1[C@H](Oc2ccccc2)OC[C@@H](O)[C@H]1O [Phenyl beta-D-arabinopyranoside]: log S -1.656 (log10 mol/L)
* O=C(OCC(=O)N1CCC1)c1ccccc1 [2-(Azetidin-1-yl)-2-oxoethyl benzoate]: log S -1.61 (log10 mol/L)
* COc1cc(NC(=O)c2cc3ccccc3c(N=Nc3cc(C(=O)Nc4ccccc4)ccc3OC)c2O)c(OC)cc1Cl: log S -7.847 (log10 mol/L)
* Clc1ccc(Oc2c(Cl)c(Cl)cc(Cl)c2Cl)cc1 [2,3,4',5,6-Pentachlorodiphenylether]: log S -7.76 (log10 mol/L)
* NC(=O)N=NC(N)=O [Azodicarbonamide]: log S -3.521 (log10 mol/L)
* O=C(Nc1cc2c3cc(NC(=O)c4ccccc4)c4c(=O)c5ccccc5c(=O)c4c3[nH]c2c2c(=O)c3ccccc3c(=O)c12)c1ccccc1: log S -4.522 (log10 mol/L)